From patent US11236106B2, “Cycloalkane-1,3-diamine derivative” (Daiichi Sankyo Company, Limited, priority 2018, dated 2022)

How the values were obtained:
Assay in all cases: cells
Conditions in all cases: Homo sapiens
K562 cells = test system: K562 cells
MV-4-11 cells = test system: MV-4-11 cells
MOLM-13 cells = test system: MOLM-13 cells
[1] = K562, 168 h, read-out: GI50, cell growth inhibitory activity, K562, day 7
[2] = MV4-11, 168 h, read-out: GI50, cell growth inhibitory activity, MV-4-11, day 7, MV-4-11 cells, cultured 7 days, assigned by order and values
[3] = MOLM-13, 168 h, read-out: GI50, cell growth inhibitory activity, MOLM-13, day 7, MOLM-13 cells, cultured 7 days, assigned by order and values
[4] = K562, 72 h, read-out: GI50, cell growth inhibitory activity, K562, day 3
[5] = MV4-11, 72 h, read-out: GI50, cell growth inhibitory activity, MV-4-11, day 3, MV-4-11 cells, cultured 3 days, assigned by order and values
[6] = MOLM-13, 72 h, read-out: GI50, cell growth inhibitory activity, MOLM-13, day 3, MOLM-13 cells, cultured 3 days, assigned by order and values
[7] = K562, 72 h, read-out: GI50 (μM) Day3 K562
[8] = K562, 168 h, read-out: GI50 (μM) Day7 K562
[9] = MV4-11, 72 h, read-out: GI50 (μM) Day3 MV4;11, MV4;11, Day3
[10] = MV4-11, 168 h, read-out: GI50 (μM) Day7 MV4;11, MV4;11, Day7
[11] = MOLM-13, 72 h, read-out: GI50 (μM) Day3 MOLM-13, MOLM-13, Day3
[12] = MOLM-13, 168 h, read-out: GI50 (μM) Day7 MOLM-13, MOLM-13, Day7

SMILES	GI50 (K562 cells; [1]) [µM]	GI50 (MV-4-11 cells; [2]) [µM]	GI50 (MOLM-13 cells; [3]) [µM]	GI50 (K562 cells; [4]) [µM]	GI50 (MV-4-11 cells; [5]) [µM]	GI50 (MOLM-13 cells; [6]) [µM]	GI50 (K562 cells; [7]) [µM]	GI50 (K562 cells; [8]) [µM]	GI50 (MV-4-11 cells; [9]) [µM]	GI50 (MV-4-11 cells; [10]) [µM]	GI50 (MOLM-13 cells; [11]) [µM]	GI50 (MOLM-13 cells; [12]) [µM]
COc1nc(N(C)[C@H]2C[C@@H](NCC3CCN(c4cc(OC)c(OC)nn4)CC3)C[C@H]2O)c2cc(CC(F)(F)F)sc2n1 [Example 115, (1R,2S,4R)-4-({[1-(5,6-dimethoxypyridazin-3-yl)piperidin-4-yl]methyl}amino)-2-{[2-methoxy-6-(2,2,2-trifluoroethyl)thieno[2,3-d]pyrimidin-4-yl](methyl)amino}cyclopentan-1-ol hydrochloride]	> 5	0.222	0.974									
CNc1ncc(-c2ccc(CN[C@H]3C[C@@H](O)[C@@H](N(C)c4ncnc5sc(CC(F)(F)F)cc45)C3)cc2)cc1OC [Example 92, (1R,2S,4R)-4-[({4-[5-methoxy-6-(methylamino)pyridin-3-yl]phenyl}methyl)amino]-2-{methyl[6-(2,2,2-trifluoroethyl)thieno[2,3-d]pyrimidin-4-yl]amino}cyclopentan-1-ol hydrochloride]	2.79	0.0493	0.12	3.48	0.0891	0.826						
CNc1nc(N(C)[C@H]2C[C@@H](NCc3ccc(-c4cncc5c4ccn5S(C)(=O)=O)cc3)C[C@H]2O)c2cc(CC(F)(F)F)sc2n1 [Example 64, (1R,2S,4R)-4[({4-[1-(methanesulfonyl)-1H-pyrrolo[2,3-c]pyridin-4yl]phenyl}methyl)amino]-2-{methyl[2-(methylamino)-6-(2,2,2trifluoroethyl)thieno[2,3-d]pyrimidin-4-yl]amino}cyclopentan-1-ol hydrochloride]	1.67	0.0355	0.0933	2.18	0.0563	0.358						
COc1cncc(-c2ccc(CN[C@@H]3C[C@H](Nc4ncnc5sc(CC(F)(F)F)cc45)C[C@H](C(=O)N(C)C)C3)cc2)c1 (single isomer, unassigned) [Example 17B, Hydrochloride]							> 10	7.25	0.17	0.118	5	0.31
COc1cncc(-c2ccc(CN[C@H]3CC[C@@H](N(C)c4nc(C)nc5sc(CC(F)(F)F)cc45)C3)cn2)c1 [Example 46, (1R,3S)-N^3-[(5′-methoxy[2,3′-bipyridine]-5-yl)methyl]-N^1-methyl-N^1-[2-methyl-6-(2,2,2-trifluoroethyl)thieno[2,3-d]pyrimidin-4-yl]cyclopentane-1,3-diamine hydrochloride]							6.42		0.49		2.69	
CN(c1ncnc2sc(CC(F)(F)F)cc12)[C@@H]1CC[C@H](NCc2ccc(NCc3ccccc3)cc2)C1 [Example 7, (1R,3S)—N^3-{[4-(benzylamino)phenyl]methyl}-N^1-methyl-N^1-[6-(2,2,2-trifluoroethyl)thieno[2,3-d]pyrimidin-4-yl]cyclopentane-1,3-diamine Hydrochloride]							1.67	0.95	1.36	0.908	1.69	1.82
Cc1ncc(-c2ccc(CN[C@H]3CC[C@@H](N(C)c4ncnc5sc(CC(F)(F)F)cc45)C3)cc2)cc1OC(F)F [Example 58, (1R,3S)-N^3-({4-[5-(difluoromethoxy)-6-methylpyridin-3-yl]phenyl}methyl)-N^1-methyl-N^1-[6-(2,2,2-trifluoroethyl)thieno[2,3-d]pyrimidin-4-yl]cyclopentane-1,3-diamine hydrochloride]							1.03	0.493	0.399	0.23	0.804	0.485
CN(c1ncnc2sc(CC(F)(F)F)cc12)[C@H]1C[C@@H](NCc2cccc(-c3cccnc3)c2)C[C@H]1O [Example 124, (1R,2S,4R)-2-{methyl[6-(2,2,2-trifluoroethyl)thieno[2,3-d]pyrimidin-4-yl]amino}-4-({[3-(pyridin-3-yl)phenyl]methyl}amino)cyclopentan-1-ol hydrochloride]	4.82	0.624	0.922									
CNc1nc(N(C)[C@H]2C[C@@H](NCc3ccc(-c4cccc(S(=O)(=O)N(C)C)c4)cc3)C[C@H]2O)c2cc(CC(F)(F)F)sc2n1 [Example 69, 4′-({[(1R,3R,4S)-3-hydroxy-4-{methyl[2-(methylamino)-6-(2,2,2-trifluoroethyl)thieno[2,3-d]pyrimidin-4-yl]amino}cyclopentyl]amino}methyl)-N,N-dimethyl[1,1′-biphenyl]-3-sulfonamide hydrochloride]	1.41	0.0233	0.0637	1.53	0.0382	0.63						
COc1cc(-c2ccc(CN[C@H]3CC[C@H](OC)[C@@H](Nc4ncnc5sc(CC(F)(F)F)cc45)C3)cc2)nnc1OC [Example 126, (1S,3S,4S)—N^1-{[4-(5,6-dimethoxypyridazin-3-yl)phenyl]methyl}-4-methoxy-N^3-[6-(2,2,2-trifluoroethyl)thieno[2,3-d]pyrimidin-4-yl]cyclohexane-1,3-diamine Hydrochloride]	8.84	0.137	0.396	> 10	0.257	5.03						
COc1nc(N(C)[C@H]2C[C@@H](NCc3ccc(-c4cnc(C#N)c(OC)c4)cc3)C[C@H]2O)c2cc(CC(F)(F)F)sc2n1 [Example 106, 5-[4-({[(1R,3R,4S)-3-hydroxy-4-{[2-methoxy-6-(2,2,2-trifluoroethyl)thieno[2,3-d]pyrimidin-4-yl](methyl)amino}cyclopentyl]amino}methyl)phenyl]-3-methoxypyridine-2-carbonitrile hydrochloride]	0.435	0.0248	0.0597									
COc1cncc(-c2ccc(CN[C@H]3CC[C@@H](N(C)c4ncnc5sc(C6COC6)cc45)C3)cc2)c1 [Example 48, (1R,3S)-N^3-{[4-(5-methoxypyridin-3-yl)phenyl]methyl}-N^1-methyl-N^1-[6-(oxetan-3-yl)thieno[2,3-d]pyrixnidin-4-yl]cyclopentane-1,3-diamine hydrochloride]							3.45		1.77		2.21	
COc1cncc(-c2ccc(CN[C@@H]3C[C@H](N(C)c4ncnc5sc(CC(F)(F)F)cc45)C[C@@H]3O)cc2)c1 [Example 51, (1S,2R,4S)-2-({[4(5methoxypyridin-3-yl)phenyl]methyl}amino)-4-{methyl[6-(2,2,2-trilluoroethyl)thieno[2,3-d]pyrimidin-4-yl]amino}cyclopentan-1-ol hydrochloride]							3.2	2.06	0.137	0.0621	1.24	0.259
CNc1nc(N(C)[C@H]2C[C@@H](NCc3ccc(-c4cnc(OC)c(OC)c4)cc3)C[C@H]2O)c2cc(CC(F)(F)F)sc2n1 [Example 73, (1R,2S,4R)-4-({[4-(5,6-dimethoxypyridin-3-yl)phenyl]methyl}amino)-2-{methyl[2-(methylamino)-6-(2,2,2-trifluoroethyl)thieno[2,3-d]pyrimidin-4-yl]amino}cyclopentan-1-ol hydrochloride]	0.723	< 0.0195	0.0389									
CN(c1ncnc2sc(CC(F)(F)F)cc12)[C@H]1C[C@@H](NCc2ccc(-c3cncc4c3cnn4C)cc2)C[C@H]1O [Example 72, (1R,2S,4R)-4-({[4-(1-methyl-1H-pyrazolo[3,4-c]pyridin-4-yl)phenyl]methyl}amino)-2-{methyl[6-(2,2,2-trifluoroethyl)thieno[2,3-d]pyrimidin-4-yl]amino}cyclopentan-1-ol hydrochloride]	1	0.23	0.519									
COc1nc(N(C)[C@H]2C[C@@H](NCc3ccc(-c4cc(OC)c(OC5CCN(S(C)(=O)=O)CC5)nn4)cc3)C[C@H]2O)c2cc(CC(F)(F)F)sc2n1 [Example 118, (1R,2S,4R)-4-({[4-(6-{[1-(methanesulfonyl)piperidin-4-yl]oxy}-5-methoxypyridazin-3-yl)phenyl]methyl}amino)-2-{[2-methoxy-6-(2,2,2-trifluoroethyl)thieno[2,3-d]pyrimidin-4-yl(methyl)amino}cyclopentan-1-ol hydrochloride]	2.7	0.0254	0.127									
COc1cncc(-c2ccc(CN[C@@H]3C[C@H](N(C)c4ncnc5sc(CC(F)(F)F)cc45)[C@@H](O)[C@H]3O)cc2)c1 [Example 20B, (1R,2S,3R,5S)-3-({[4-(5-methoxypyridin-3-yl)phenyl]methyl}amino)-5-{methyl[6-(2,2,2-trifluoroethyl)thieno[2,3-d]pyrimidin-4-yl]amino}cyclopentane-1,2-diol Hydrochloride]							9.03	4.65	0.331	0.226	4.02	0.379

Where a name gives a salt, the structure may show the parent alone. Read-outs that look alike come from different tables or passages of the source.
